Consider 38 compounds from patent US9302989B2 (priority 2010, dated 2016).

By UniProt entry, the sequences of proteins in these tests, tags left out. Where a name states a change or a piece, a line headed by the entry shows the natural chain unless it says otherwise.
UniProt P43490: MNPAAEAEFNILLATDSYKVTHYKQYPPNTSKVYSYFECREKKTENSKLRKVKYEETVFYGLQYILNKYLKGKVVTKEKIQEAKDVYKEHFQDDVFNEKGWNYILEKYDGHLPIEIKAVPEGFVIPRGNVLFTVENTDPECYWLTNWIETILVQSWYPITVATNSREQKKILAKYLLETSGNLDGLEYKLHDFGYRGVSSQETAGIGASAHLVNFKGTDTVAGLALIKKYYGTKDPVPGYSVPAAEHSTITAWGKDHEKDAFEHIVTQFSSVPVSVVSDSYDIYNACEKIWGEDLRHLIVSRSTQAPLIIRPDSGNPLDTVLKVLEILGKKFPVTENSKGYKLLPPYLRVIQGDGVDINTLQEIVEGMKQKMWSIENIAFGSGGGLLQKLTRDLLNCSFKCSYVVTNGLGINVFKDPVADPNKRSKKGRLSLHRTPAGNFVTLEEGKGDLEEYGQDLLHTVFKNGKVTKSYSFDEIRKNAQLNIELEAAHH

The target in this assay is NAMPT (Homo sapiens (Human), UniProt P43490). Conditions: read-out: TR-FRET Binding IC50 (μM) probe 1. On the technique in general: Time-resolved FRET reads energy transfer from a long-lived donor to a nearby acceptor.
Broadly, the IC50 is the concentration at which inhibition is half-maximal. With `COc1ccc(NC(C)=O)cc1NC(=O)c1ccc(NC(=O)N2Cc3ccccc3C2)cc1` [Example 167, N-{4-[(5-acetamido-2-methoxyphenyl)carbamoyl]phenyl}-1,3-dihydro-2H-isoindole-2-carboxamide], the IC50 was determined as 0.101 µM.

As to `O=C(NCCCc1ccccc1)c1ccc(NC(=O)N2Cc3cncnc3C2)cc1` [Example 431, N-(4-{[(3-phenylpropyl)amino]carbonyl}phenyl)-5,7-dihydro-6H-pyrrolo[3,4-d]pyrimidine-6-carboxamide], the IC50 came out at 0.0607 µM.

In the case of `CC(=O)N1CCN(c2nc3cc(NC(=O)N4Cc5ccccc5C4)ccc3[nH]2)CC1` [Example 455, N-[2-(4-acetylpiperazin-1-yl)-1H-benzimidazol-5-yl]-1,3-dihydro-2H-isoindole-2-carboxamide], the IC50 worked out at 12.2 µM.

For `CCCNC(=O)c1ccc(NC(=O)N2Cc3ccc(NC(C)=O)cc3C2)cc1` [Example 278, 5-acetamido-N-[4-(propylcarbamoyl)phenyl]-1,3-dihydro-2H-isoindole-2-carboxamide], the IC50 was determined as 0.385 µM.

As to `O=C(CNC(=O)c1ccco1)Nc1ccc(NC(=O)N2Cc3ccccc3C2)cc1` [Example 298, N-(4-{[N-(2-furoyl)glycyl]amino}phenyl)-1,3-dihydro-2H-isoindole-2-carboxamide], the IC50 turned out to be 0.097 µM.

On to `O=C(Nc1ccc(OC(F)(F)F)cc1)c1ccc(NC(=O)N2Cc3ccccc3C2)cc1` [Example 270, N-(4-{[4-(trifluoromethoxy)phenyl]carbamoyl}phenyl)-1,3-dihydro-2H-isoindole-2-carboxamide], for which the IC50 amounted to 4.7 µM.

Turning to `O=C(NC[C@@H]1CCCO1)c1ccc(NC(=O)N2Cc3ccncc3C2)cc1` [Example 426, N-(4-{[(2S)-tetrahydrofuran-2-ylmethyl]carbamoyl}phenyl)-1,3-dihydro-2H-pyrrolo[3,4-c]pyridine-2-carboxamide], the IC50 worked out at 0.0104 µM.

For `CCCNC(=O)c1ccc(NC(=O)N2Cc3ccc(NC(=O)COC)cc3C2)cc1` [Example 282, 5-[(methoxyacetyl)amino]-N-[4-(propylcarbamoyl)phenyl]-1,3-dihydro-2H-isoindole-2-carboxamide], the IC50 turned out to be 0.14 µM.

For the compound `O=C(Nc1ccc(-c2cncc3ccccc23)cc1)N1Cc2ccccc2C1` [Example 375, N-[4-(isoquinolin-4-yl)phenyl]-1,3-dihydro-2H-isoindole-2-carboxamide], the IC50 turned out to be 0.595 µM.

In the case of `CCCNC(=O)c1ccc(NC(=O)N2Cc3ccc(C(N)=O)cc3C2)cc1` [Example 132, N^2-[4-(propylcarbamoyl)phenyl]-1,3-dihydro-2H-isoindole-2,5-dicarboxamide], the IC50 was found to be 0.0581 µM.

With `O=C(NCCCCO)c1ccc(NC(=O)N2Cc3ccccc3C2)cc1` [Example 150, N-{4-[(4-hydroxybutyl)carbamoyl]phenyl}-1,3-dihydro-2H-isoindole-2-carboxamide], the half-inhibitory concentration (IC50) turned out to be 0.0728 µM.

On to `CC[C@@H](CO)NC(=O)c1ccc(NC(=O)N2Cc3ccccc3C2)cc1` [Example 210, N-(4-{[(2S)-1-hydroxybutan-2-yl]carbamoyl}phenyl)-1,3-dihydro-2H-isoindole-2-carboxamide], for which the IC50 came out at 0.235 µM.

Take `O=C(N[C@H]1c2ccccc2C[C@@H]1O)c1ccc(NC(=O)N2Cc3ccccc3C2)cc1` [Example 417, N-(4-{[(1S,2S)-2-hydroxy-2,3-dihydro-1H-inden-1-yl]carbamoyl}phenyl)-1,3-dihydro-2H-isoindole-2-carboxamide]: the half-inhibitory concentration (IC50) came out at 4.91 µM.

For the compound `CCCCC(=O)Nc1ccc(NC(=O)N2Cc3ccccc3C2)cc1` [Example 304, N-[4-(pentanoylamino)phenyl]-1,3-dihydro-2H-isoindole-2-carboxamide], the IC50 amounted to 0.0133 µM.

With `O=C(Nc1ccc(C(=O)N2CCN(c3ccc(F)cc3)CC2)cc1)N1Cc2ccccc2C1` [Example 44, N-(4-{[4-(4-fluorophenyl)piperazin-1-yl]carbonyl}phenyl)-1,3-dihydro-2H-isoindole-2-carboxamide], the IC50 was determined as 0.018 µM.

Take `CC(C)CCNC(=O)c1ccc(NC(=O)N2Cc3ccncc3C2)cc1` [Example 290, N-{4-[(3-methylbutyl)carbamoyl]phenyl}-1,3-dihydro-2H-pyrrolo[3,4-c]pyridine-2-carboxamide]: the IC50 stood at 0.0104 µM.

As to `O=C(Nc1ccc(C(=O)N2CCN(c3ccncc3)CC2)cc1)N1Cc2ccccc2C1` [Example 109, N-(4-{[4-(pyridin-4-yl)piperazin-1-yl]carbonyl}phenyl)-1,3-dihydro-2H-isoindole-2-carboxamide], the IC50 was found to be 0.0412 µM.

In the case of `CN(C)c1cccc(C(=O)N2CCN(c3ccc(NC(=O)N4Cc5ccccc5C4)cc3)CC2)c1` [Example 520, N-(4-{4-[3-(dimethylamino)benzoyl]piperazin-1-yl}phenyl)-1,3-dihydro-2H-isoindole-2-carboxamide], the IC50 turned out to be 0.0488 µM.

For `CC(C)Cn1cc(-c2ccc(CNC(=O)N3Cc4ccccc4C3)cc2)cn1` [Example 367, N-[4-(1-isobutyl-1H-pyrazol-4-yl)benzyl]-1,3-dihydro-2H-isoindole-2-carboxamide], the IC50 is 4.84 µM.

As to `COc1ccc(CCNC(=O)c2ccc(NC(=O)N3Cc4ccccc4C3)cc2)cc1` [Example 127, N-(4-{[2-(4-methoxyphenyl)ethyl]carbamoyl}phenyl)-1,3-dihydro-2H-isoindole-2-carboxamide], the half-maximal inhibitory concentration (IC50) came out at 0.0539 µM.

With `O=C(NC[C@H]1CCCO1)c1ccc(NC(=O)N2Cc3ccc(F)cc3C2)cc1` [Example 436, 5-fluoro-N-[4-({[(2R)-tetrahydrofuran-2-ylmethyl]amino}carbonyl)phenyl]-1,3-dihydro-2H-isoindole-2-carboxamide], the IC50 worked out at 0.00933 µM.

On to `CCCn1cc(-c2ccc(NC(=O)N3Cc4ccccc4C3)c(F)c2)cn1` [Example 328, N-[2-fluoro-4-(1-propyl-1H-pyrazol-4-yl)phenyl]-1,3-dihydro-2H-isoindole-2-carboxamide], for which the IC50 stood at 0.331 µM.

Take `O=C(Nc1ccc(C(=O)N2CCC(F)(F)C2)cc1)N1Cc2ccccc2C1` [Example 218, N-{4-[(3,3-difluoropyrrolidin-1-yl)carbonyl]phenyl}-1,3-dihydro-2H-isoindole-2-carboxamide]: the IC50 is 0.279 µM.

On to `O=C(Nc1ccc(NCCC2CCCC2)cc1)N1Cc2ccc(CO)cc2C1` [Example 316, N-{4-[(2-cyclopentylethyl)amino]phenyl}-5-(hydroxymethyl)-1,3-dihydro-2H-isoindole-2-carboxamide], for which the IC50 worked out at 0.287 µM.

Regarding `O=C(NCCCO)c1ccc(NC(=O)N2Cc3ccccc3C2)cc1` [Example 205, N-{4-[(3-hydroxypropyl)carbamoyl]phenyl}-1,3-dihydro-2H-isoindole-2-carboxamide], the IC50 stood at 0.203 µM.

In the case of `COc1ccc(NC(=O)c2ccc(NC(=O)N3Cc4ccccc4C3)cc2)cc1` [Example 165, N-{4-[(4-methoxyphenyl)carbamoyl]phenyl}-1,3-dihydro-2H-isoindole-2-carboxamide], the IC50 was determined as 0.0931 µM.

As to `CCC(=O)N1CCN(c2ccc(NC(=O)N3Cc4ccccc4C3)cc2)CC1` [Example 342, N-[4-(4-propionylpiperazin-1-yl)phenyl]-1,3-dihydro-2H-isoindole-2-carboxamide], the IC50 came out at 0.103 µM.

Consider `O=C(Nc1ccc(C(=O)N2CCN(c3ccc(C(F)(F)F)cc3)CC2)cc1)N1Cc2ccccc2C1` [Example 216, N-[4-({4-[4-(trifluoromethyl)phenyl]piperazin-1-yl}carbonyl)phenyl]-1,3-dihydro-2H-isoindole-2-carboxamide], for which the IC50 came to 0.271 µM.

As for `Cc1n[nH]c2ccc(NC(=O)c3ccc(NC(=O)N4Cc5ccccc5C4)cc3)cc12` [Example 87, N-{4-[(3-methyl-1H-indazol-5-yl)carbamoyl]phenyl}-1,3-dihydro-2H-isoindole-2-carboxamide], the IC50 was determined as 0.0326 µM.

For the compound `CCCCCC(=O)Nc1ccc(NC(=O)N2Cc3ccccc3C2)cc1` [Example 305, N-[4-(hexanoylamino)phenyl]-1,3-dihydro-2H-isoindole-2-carboxamide], the IC50 turned out to be 0.0121 µM.

With `CC(C)C[C@@H](CO)NC(=O)c1ccc(NC(=O)N2Cc3ccccc3C2)cc1` [Example 252, N-(4-{[(2S)-1-hydroxy-4-methylpentan-2-yl]carbamoyl}phenyl)-1,3-dihydro-2H-isoindole-2-carboxamide], the IC50 was determined as 0.837 µM.

Regarding `COc1cc(NC(=O)c2ccc(NC(=O)N3Cc4ccccc4C3)cc2)cc(OC)c1` [Example 99, N-{4-[(3,5-dimethoxyphenyl)carbamoyl]phenyl}-1,3-dihydro-2H-isoindole-2-carboxamide], the IC50 is 0.0382 µM.

Consider `O=C(NCCCc1ccccc1)c1ccc(NC(=O)N2Cc3ccccc3C2)cc1` [Example 1, N-{4-[(3-phenylpropyl)carbamoyl]phenyl}-1,3-dihydro-2H-isoindole-2-carboxamide], for which the IC50 came to 0.0125 µM.

Regarding `O=C(Nc1ccc(-c2c[nH]c(=O)c3ccccc23)cc1)N1Cc2ccc(CN3CCOCC3)cc2C1` [Example 381, 5-(morpholin-4-ylmethyl)-N-[4-(1-oxo-1,2-dihydroisoquinolin-4-yl)phenyl]-1,3-dihydro-2H-isoindole-2-carboxamide], the IC50 is 0.547 µM.

Take `COc1ccc2c(c1)CN(C(=O)Nc1ccc(-c3c[nH]c(=O)c4ccccc34)cc1)C2` [Example 382, 5-methoxy-N-[4-(1-oxo-1,2-dihydroisoquinolin-4-yl)phenyl]-1,3-dihydro-2H-isoindole-2-carboxamide]: the IC50 came out at 0.257 µM.

As for `CCCC(=O)N1CCN(c2ccc(NC(=O)N3Cc4ccccc4C3)cc2)CC1` [Example 503, N-[4-(4-butyrylpiperazin-1-yl)phenyl]-1,3-dihydro-2H-isoindole-2-carboxamide], the IC50 turned out to be 0.0786 µM.

Take `CCCCN(C)C(=O)c1ccc(NC(=O)N2Cc3ccccc3C2)cc1` [Example 183, N-{4-[butyl(methyl)carbamoyl]phenyl}-1,3-dihydro-2H-isoindole-2-carboxamide]: the IC50 came to 0.14 µM.

Consider `COc1ccc(OC)c(CCNC(=O)c2ccc(NC(=O)N3Cc4ccccc4C3)cc2)c1` [Example 90, N-(4-{[2-(2,5-dimethoxyphenyl)ethyl]carbamoyl}phenyl)-1,3-dihydro-2H-isoindole-2-carboxamide], for which the half-maximal inhibitory concentration (IC50) stood at 0.0335 µM.
